# Data taken from ChEMBL document CHEMBL1136225, “Selective 3-amino-2-pyridinone acetamide thrombin inhibitors incorporating weakly basic partially saturated heterobicyclic P1-arginine mimetics” (Bioorg Med Chem Lett, 2003).
# Biological target: Prothrombin (Homo sapiens, UniProt P00734)
# Assay: Inhibitory activity against thrombin
# Summary of the method: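 Amidolytic enzyme assays with chromogenic substrates for thrombin, trypsin and factor Xa; Ki derived from IC50 by Cheng–Prusoff, or from reaction velocity equations with and without inhibitor using the relevant Km.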
compound,measurement,value
Cc1ccc(NS(=O)(=O)Cc2ccccc2)c(=O)n1CC(=O)NC1CCc2nn(C)cc2C1 (stereo unspecified),Ki,25 µM
